This is an account of results in patent publication US6780891B2, “Tramadol analogs and uses thereof” (Sepracor Inc., priority 2001, dated 2004).

Chains of the proteins cited; added tags and fusions are not shown.
UniProt P33535, whole entry: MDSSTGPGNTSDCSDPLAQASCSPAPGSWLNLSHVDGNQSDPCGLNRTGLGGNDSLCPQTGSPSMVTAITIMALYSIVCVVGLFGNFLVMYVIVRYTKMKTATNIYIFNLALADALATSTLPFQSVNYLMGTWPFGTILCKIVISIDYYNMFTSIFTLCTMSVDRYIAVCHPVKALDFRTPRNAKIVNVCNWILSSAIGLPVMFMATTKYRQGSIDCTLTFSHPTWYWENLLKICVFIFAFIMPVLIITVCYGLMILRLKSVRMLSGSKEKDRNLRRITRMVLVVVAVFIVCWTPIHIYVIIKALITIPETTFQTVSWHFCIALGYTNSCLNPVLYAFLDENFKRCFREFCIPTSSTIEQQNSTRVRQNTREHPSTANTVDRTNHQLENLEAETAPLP

For this assay, the target named is μ receptor (Rattus norvegicus, UniProt P33535). Briefly: biochemical. As to conditions: IC50, opioid binding, rat cerebral cortex, [3H]DAMGO 1 nM, 60 minutes/22° C.

“And” between values parts separate entries of the source, which are not always exact repeats. Equal entries are not always repeated.

In the case of `C[C@@H](NC(=O)[C@@H](N)Cc1ccc(O)cc1)C(=O)NCC(=O)N(C)[C@@H](Cc1ccccc1)C(=O)NCCO` [DAMGO, reference compound], the IC50 (usually the concentration that inhibits the measured activity by half) is 2.1 nM and 4.4 nM.
